Source: US20240216401A1, “COMBINATION THERAPY BY USING AKR1C3-ACTIVATED COMPOUND WITH IMMUNE CHECKPOINT INHIBITOR” (OBI Pharma, Inc., priority 2021, published 2024)

How the values were obtained:
Format in all cases: in vivo, Mus musculus
[1] = tested on: CTL cells (CD45^+CD8^+ T cells) in tumor-infiltrating lymphocytes; assay: Example 2: flow cytometry, percentage of CTL cells in TILs; conditions: G3: 1 mg/kg; individual mice
Method: (§1) Mice were sacrificed by CO2 euthanasia at the end of the study duration, and the connective tissue around tumor was resected. The tumor samples were then weighed and cut equally into three sections if the tumor weight over 400 mg. The tumor tissue was prepared for the isolation of tumor-infiltrating lymphocytes (TILs). The rest of one section was fixed in 10% formaldehyde and embedded in paraffin; the other was stored at a temperature below −70° C.
(§2) The tumor samples were dissected into smaller fragments using scalpels and then digested with a cocktail of collagenase, DNase I, and Hyaluronidase (Collagenase #C5138, DNase I #D5025, Hyaluronidase #H6254, SigmaAldrich) for at least 2 hours.
(§3) Cells were stained with the fluorescently conjugated surface antibodies and incubated for 30 minutes at 4° C., and then resuspended in staining buffer for flow cytometric analysis. Flow cytometry was done using a Navios EX Flow Cytometer (Beckman Coulter). Data were analyzed using the Kaluza Analysis Software (Beckman Coulter).

[2] = Example 1: body weight and mortality of HepG2 tumor bearing humanized mice; conditions: OBI-3424 1 mg/kg IV, antibody 10 mg/kg IP (20 from Day 15)
Method: Each group contains five mice. The human hepatocellular carcinoma cell line HepG2 were subcutaneously inoculated to the advanced immune deficiency mice. Total of 30 mice were included in this study.
3.1. […] The injection was performed using insulin syringe with the dosage of 10 mg/kg (Dosage of injection was changed to 20 mg/kg from Day 15) and injection volume of 10 mL/kg. […] The reference item was administered for G1. The procedure followed the standards of sample administration.
3.2. The test item anti-hPD-L1 antibody or reference items were intraperitoneally injected to the mice on Day 8 after the inoculation of tumor cells. The injection was performed using insulin syringe with the dosage of 10 mg/kg (Dosage of injection was changed to 20 mg/kg from Day 15) and injection volume of 10 mL/kg. The test item anti-hPD-L1 was continuously administered on Day 8, 11, 15, 18, 22, 25, 29 and 32 for G4 and G6. The reference item was administered for G1. The procedure followed the standards of sample administration.
3.3. […] The injection was performed using insulin syringe with the dosage of 1 mg/kg and injection volume of 5 mL/kg. […] The reference item was administered for G1. The procedure followed the standards of sample administration.
The measurement was performed from the next day of the inoculation. The animal body weights were measured and recorded twice per week.

[3] = tested on: T helper (TH) cells (CD45^+CD4^+ T cells) in tumor-infiltrating lymphocytes; assay: Example 2: flow cytometry, percentage of TH cells in TILs; conditions: G2: OBI-3424 (0.3 mg/kg), individual animals
Method: as §1, §2, §3

C[C@H](OP(=O)(N1CC1)N1CC1)c1ccc([N+](=O)[O-])c(Oc2cccc(C(=O)N(C)C)c2)c1 [OBI-3424, (S)-1-(3-(3-N,N-dimethylaminocarbonyl)phenoxyl-4-mtrophenyl)-1-ethyl-N,N′-bis(ethylene)phosphoramidate]
CTL cells (CD45^+CD8^+) Total % [1]: 43.72%
Granzyme B^+ CTL cells (CD45^+ CD8^+GrB+) Total % [1]: 42.67%
Body Weight, Mean ([2]; Day 0, group mean): 23.42 g
Body Weight, Mean ([2]; Day 1, group mean): 22.79 g
Body Weight, Mean ([2]; Day 7, group mean): 23.24 g
Body Weight, Mean ([2]; Day 28, group mean): 23.46 g
Body Weight, Mean ([2]; Day 35, group mean): 23.70 g
CD69^+ TH cells (CD45^+CD4^+CD69^+) TH Gated % [3]: 75.09%
